By UniProt entry, the sequences of proteins in these tests, tags left out. Residues count along the entry.
UniProt P80147, 29-500: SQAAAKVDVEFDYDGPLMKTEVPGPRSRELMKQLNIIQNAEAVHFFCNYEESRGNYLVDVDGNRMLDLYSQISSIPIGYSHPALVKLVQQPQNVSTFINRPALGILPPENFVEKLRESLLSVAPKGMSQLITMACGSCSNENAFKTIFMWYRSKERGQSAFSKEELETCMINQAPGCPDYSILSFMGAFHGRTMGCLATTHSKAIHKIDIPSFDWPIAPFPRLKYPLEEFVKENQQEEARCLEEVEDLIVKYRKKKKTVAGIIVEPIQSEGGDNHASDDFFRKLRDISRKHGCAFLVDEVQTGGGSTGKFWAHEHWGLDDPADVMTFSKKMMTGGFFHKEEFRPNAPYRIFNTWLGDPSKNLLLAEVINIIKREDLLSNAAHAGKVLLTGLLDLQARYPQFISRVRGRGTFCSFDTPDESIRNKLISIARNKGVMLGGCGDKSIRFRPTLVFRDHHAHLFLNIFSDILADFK

In patent US10800753B2, “Tetrahydrothiophene-based GABA aminotransferase inactivators and analogs thereof for treating neurological disorders” (Northwestern University, priority 2015, dated 2020):

Target: GABA aminotransferase (GABA-AT) (Sus scrofa (Pig), UniProt P80147)
Assay: Time-dependent inhibition (inactivation) of GABA-AT, Kitz and Wilson replot
Type: biochemical
Conditions: for Ki: inactivation, non-optimal conditions pH 6.5, 25° C.; for efficiency as inactivator of GABA-AT relative to vigabatrin (from kinact/KI): pH 6.5, 25° C.
Description: GABA-AT was isolated and purified from pig brain by a published procedure.

SMILES | inactivation rate constant relative to that of vigabatrin [times] | Ki [µM] | efficiency as inactivator of GABA-AT relative to vigabatrin (from kinact/KI)
Cl.N[C@@H]1CS[C@H](C(=O)O)C1 [Compound 17, (2S,4S)-4-Aminotetrahydrothiophene-2-carboxylic acid hydrochloride] | ~20 | 182 | eight times more efficient
Cl.N[C@@H]1CS[C@@H](C(=O)O)C1 [Compound 18, (2R,4S)-4-Aminotetrahydrothiophene-2-carboxylic acid hydrochloride] |  | 2230 | half as efficient as vigabatrin
